From PubChem BioAssay AID430 (Sanford-Burnham Center for Chemical Genomics, 2006)
The entries are a selection whose mix differs from that of the whole data set. Entries with a potency or affinity are not part of this list. Active and inactive are the calls of the source. Rule as the data show it: active = cytotoxicity above about 50%; inactive = the rest.

assay: HPDE-C7 pancreatic duct cell viability loss – fluorescence, HTS (AID 430); settings: HPDE-C7 pancreatic duct cells viability, at 10 µM, hits give high values;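 also: cells exposed to compound for 48 hours before viability readout; 0% = vehicle and 100% = reference cytotoxic drug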

SMILES	cytotoxicity
Cc1nn(-c2ccccc2)c2c1P(=O)(N1CCOCC1)N(C)C(c1ccccc1)=N2 (stereo not drawn)	inactive: -4.7%
O=P1(Nc2ccc(Br)cn2)COc2ccccc2OC1	inactive: -21.1%
Cc1ccc(OCC(=O)OC2CN3CCC2CC3)cc1 (stereo not drawn)	inactive: -12.6%
O=P1(Nc2ncccn2)COc2ccccc2OC1	inactive: -6.4%
Clc1n[nH]nc1-c1nn[nH][15n]1	inactive: 2.3%
O=P1(Nc2ccccn2)COc2ccccc2OC1	inactive: -22.8%
Cc1cccc(OCC(=O)OC2CN3CCC2CC3)c1 (stereo not drawn)	inactive: -15.4%
CCOP1(=S)c2c(C)nn(CCC#N)c2N=C(c2ccccc2F)N1C (stereo not drawn)	inactive: -11.5%
O=P(Nc1nccs1)(c1ccccc1)c1nc2ccccc2s1 (stereo not drawn)	inactive: -7.9%
CCOP1(=S)c2c(C)nn(CCC#N)c2N=C(c2ccc(F)cc2)N1C (stereo not drawn)	inactive: 2.8%
O=C(COc1ccccc1)OC1CN2CCC1CC2 (stereo not drawn)	inactive: 3.7%
COP1(=S)c2c(C)nn(CCC#N)c2N=C(c2ccc(F)cc2)N1C (stereo not drawn)	inactive: -12.8%
Cc1c2non([O-])c-2c(C)[n+](=O)[n+]1[O-]	inactive: 0.9%
COC(=O)c1cc2c(s1)N=C(c1ccccc1)N(C)P2(=O)N1CCOCC1 (stereo not drawn)	inactive: 1%
O=P1(Nc2nc3ccc(Cl)cc3s2)COc2ccccc2O1 (stereo not drawn)	inactive: -18.3%
c1nnnn1CCn1cnnn1	inactive: -27.6%
O=P(Nc1nccs1)(c1ccccc1)c1ccccc1	inactive: 14.7%
O=C(OC1CN2CCC1CC2)c1cccc(Cl)c1 (stereo not drawn)	inactive: -12.7%
